Patent publication US20170183383A1 (JIANG XIANXING, published 2017)

Assays:
Assay in all cases: cell-based or functional assay
[1] = target: human glucagon-like peptide-1 receptor (human) (UniProt P43220)
[2] = target: human glucagon receptor (human) (UniProt P47871)
[3] = target: human glucagon-like peptide-1 receptor (human, UniProt P43220 24-463)

| Molecule | GLP-1R (EC50, nM), CRE-luciferase in HEK-293 cells [1] [nM] | GCGR (EC50, nM), CRE-luciferase in HEK-293 cells [2] [nM] | GLP-1R (EC50, nM), CRE-luciferase in HEK-293 cells [3] [nM] |
| --- | --- | --- | --- |
| Exenatide (peptide) | 0.02 | > 100 | – |
| HSQGTFTSDYSKYLDSRRAQDFVQWLMNTKRNKNNIA (ligand) [Oxyntomodulin] | – | – | 2.5 |
